{"source": "patent US5721214A", "about": "“Inhibitors of factor Xa” (COR Therapeutics, Inc., priority 1995, dated 1998)", "molecular_target": "T1, thrombin (Homo sapiens, UniProt P00734)", "T1 construct": "The formation of thrombin is the result of the proteolytic cleavage of its precursor prothrombin", "assay": "Thrombin amidolytic assay (Chromozym TH)", "format": "biochemical", "note": "Like-named read-outs stand apart in the source and are kept apart here."}
{"compound": "CC(C)(C)OC(=O)N[C@H](CCCN=C(N)N)C(=O)NCC(=O)N[C@H](C=O)CCCN=C(N)N", "note": "[Boc--D--Arg--Gly--Arg--H, Boc-D-Arg-Gly-Arg-H]", "values": [{"measurement": "IC50", "result": "> 100", "unit": "µM"}]}
{"compound": "N=C(N)NCCC[C@@H](C=O)NC(=O)CNC(=O)[C@@H](CCCNC(=N)N)NC(=O)C(=O)O", "note": "[HOOCCO--D--Arg--Gly--Arg--H, Oxaloyl-D-Arg-Gly-Arg-H]", "values": [{"measurement": "IC50", "setting": "5 min preincubation, room temperature, pH 7.5, read-out: Inhibitory Activity (IC50) Thrombin", "result": 95, "unit": "µM"}]}
